What is called Kd is the concentration at which binding is half-saturated.

Chains of the proteins cited; added tags and fusions are not shown. A line that says so, or that is headed by a name, gives the form on record, which may keep a tag or linker.
UniProt P01920, with tags, fused parts or gaps with the stated changes: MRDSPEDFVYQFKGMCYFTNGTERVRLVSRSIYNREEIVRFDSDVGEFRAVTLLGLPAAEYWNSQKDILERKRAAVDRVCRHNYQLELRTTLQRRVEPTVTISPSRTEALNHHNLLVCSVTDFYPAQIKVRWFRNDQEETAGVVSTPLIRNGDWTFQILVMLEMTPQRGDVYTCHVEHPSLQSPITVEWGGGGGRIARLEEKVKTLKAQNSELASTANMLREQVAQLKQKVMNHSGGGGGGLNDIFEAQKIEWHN

This is an account of results in article PMC2690590, “Functional recombinant MHC class II molecules and high-throughput peptide-binding assays” (Immunome Research, 2009).

Structures are written as SMILES. Bounds are passed on as bounds.

In this test the target is T1, DQA1*0501/DQB1*0201 (Homo sapiens, UniProt P01909+P01920, C70S).
T1 construct: HAT-DQA1*05011-181(C47S)LZFos; DQB1*0201LZ1-190JunBSP; made in house
As to the kind of experiment: Direct LOCI peptide-MHC-II binding assay, DQA1*0501/DQB1*0201.

Take `CC[C@H](C)[C@H](NC(=O)[C@H](CCC(=O)O)NC(=O)[C@H](Cc1ccc(O)cc1)NC(=O)[C@@H](NC(=O)[C@@H](NC(=O)CN)C(C)C)[C@@H](C)O)C(=O)N[C@@H](CC(=O)O)C(=O)N[C@@H](CC(C)C)C(=O)N[C@H](C(=O)N[C@@H](CC(N)=O)C(=O)N[C@@H](CCCCN)C(=O)N[C@@H](CC(N)=O)C(=O)O)[C@@H](C)O` [Mycobact leprea]: the dissociation constant Kd is > 5 µM.

On to `CC[C@H](C)[C@H](NC(=O)[C@H](Cc1c[nH]cn1)NC(=O)[C@H](Cc1c[nH]cn1)NC(=O)[C@H](Cc1c[nH]cn1)NC(=O)[C@H](Cc1c[nH]cn1)NC(=O)[C@H](Cc1c[nH]cn1)NC(=O)[C@H](Cc1c[nH]cn1)NC(=O)[C@@H](N)Cc1ccc(O)cc1)C(=O)N[C@@H](CCC(=O)O)C(=O)NCC(=O)N[C@@H](CCCNC(=N)N)C(=O)N[C@@H](CO)C(=O)N[C@@H](Cc1ccccc1)C(=O)N[C@@H](CCC(=O)O)C(=O)N[C@@H](CCCNC(=N)N)C(=O)N[C@@H](Cc1ccccc1)C(=O)N[C@@H](CCC(=O)O)C(=O)N[C@H](C(=O)N[C@@H](Cc1ccccc1)C(=O)N1CCC[C@H]1C(=O)N[C@@H](CCCCN)C(=O)N[C@@H](CCC(=O)O)C(=O)O)[C@@H](C)CC` [6xH Influenza A (PR8) HA 109–119], for which the Kd stood at 3.91 µM.

`CC[C@H](C)[C@H](NC(=O)[C@H](C)NC(=O)[C@@H](NC(=O)[C@H](CCSC)NC(=O)[C@@H](N)CCCNC(=N)N)[C@@H](C)CC)C(=O)N[C@@H](CO)C(=O)N[C@@H](C)C(=O)N[C@@H](CCCCN)C(=O)N[C@H](C(=O)O)C(C)C` [Pox.o42.con.im. A2]: the Kd was > 5 µM.

Molecule `CC(C)C[C@H](NC(=O)CNC(=O)[C@H](Cc1c[nH]c2ccccc12)NC(=O)CNC(=O)[C@@H](NC(=O)[C@@H]1CCCN1C(=O)[C@@H](NC(=O)[C@H](C)NC(=O)[C@H](CC(=O)O)NC(=O)[C@H](C)NC(=O)[C@H](Cc1ccccc1)NC(=O)[C@@H](NC(=O)[C@H](CCC(N)=O)NC(=O)[C@H](CS)NC(=O)[C@H](CC(C)C)NC(=O)[C@@H](N)Cc1ccc(O)cc1)C(C)C)[C@@H](C)O)[C@@H](C)O)C(=O)O` yielded an equilibrium dissociation constant (Kd) of 1.34 µM. This counts as single-digit micromolar.

With `CC(C)C[C@H](NC(=O)[C@H](CCCCN)NC(=O)[C@H](CC(C)C)NC(=O)[C@@H](NC(=O)[C@H](CC(N)=O)NC(=O)[C@H](CCC(N)=O)NC(=O)[C@H](CCCCN)NC(=O)[C@@H](NC(=O)[C@H](Cc1ccc(O)cc1)NC(=O)[C@H](CCCCN)NC(=O)[C@@H](N)Cc1ccc(O)cc1)C(C)C)[C@@H](C)O)C(=O)N[C@@H](C)C(=O)N[C@H](C(=O)O)[C@@H](C)O` [HA306-318], the Kd is > 5 µM.

On to `CC[C@H](C)[C@H](NC(=O)[C@H](CC(N)=O)NC(=O)[C@H](CCC(N)=O)NC(=O)[C@@H](NC(=O)[C@@H](NC(=O)[C@@H]1CCCN1)[C@@H](C)CC)C(C)C)C(=O)N[C@@H](CCC(N)=O)C(=O)NCC(=O)N[C@@H](CCC(N)=O)C(=O)N[C@@H](CCSC)C(=O)N[C@H](C(=O)N[C@@H](Cc1c[nH]cn1)C(=O)N[C@@H](CCC(N)=O)C(=O)O)C(C)C` [HIV], for which the Kd is > 5 µM.

Regarding `CC[C@H](C)[C@H](NC(=O)[C@H](CC(C)C)NC(=O)[C@H](Cc1ccccc1)NC(=O)[C@H](C)NC(=O)[C@H](CC(C)C)NC(=O)[C@H](CC(=O)O)NC(=O)[C@@H](NC(=O)[C@H](CC(C)C)NC(=O)[C@@H](N)Cc1ccccc1)[C@@H](C)CC)C(=O)O` [Pox.o42.con A2], the equilibrium dissociation constant (Kd) is > 5 µM.

With `CC[C@H](C)[C@H](NC(=O)[C@H](Cc1c[nH]cn1)NC(=O)[C@H](Cc1c[nH]cn1)NC(=O)[C@H](Cc1c[nH]cn1)NC(=O)[C@H](Cc1c[nH]cn1)NC(=O)[C@H](Cc1c[nH]cn1)NC(=O)[C@@H](N)Cc1c[nH]cn1)C(=O)N[C@@H](CCC(=O)O)C(=O)NCC(=O)N[C@@H](CCCNC(=N)N)C(=O)N[C@@H](Cc1ccccc1)C(=O)N[C@@H](C)C(=O)N[C@@H](C)C(=O)N[C@@H](CC(C)C)C(=O)N[C@@H](Cc1c[nH]c2ccccc12)C(=O)N[C@@H](Cc1ccccc1)C(=O)N[C@@H](CCCNC(=N)N)C(=O)N[C@@H](CC(N)=O)C(=O)N[C@@H](Cc1c[nH]cn1)C(=O)N[C@@H](Cc1ccccc1)C(=O)N[C@H](C(=O)N[C@@H](Cc1ccccc1)C(=O)NCC(=O)NCC(=O)NCC(=O)N[C@H](C(=O)N[C@@H](CCCCN)C(=O)O)[C@@H](C)O)C(C)C` [6xH Lambda 2(315)], the Kd is > 5 µM.

`CC[C@H](C)[C@H](NC(=O)[C@H](Cc1ccccc1)NC(=O)[C@@H]1CCCN1C(=O)[C@@H](N)Cc1ccc(O)cc1)C(=O)N[C@@H](CCC(=O)O)C(=O)N[C@@H](CCC(N)=O)C(=O)N[C@@H](CCC(=O)O)C(=O)NCC(=O)N1CCC[C@H]1C(=O)N[C@@H](CCC(=O)O)C(=O)N[C@@H](Cc1ccccc1)C(=O)N[C@@H](Cc1ccccc1)C(=O)N[C@@H](CC(=O)O)C(=O)N[C@@H](CCC(N)=O)C(=O)N[C@@H](CCC(=O)O)C(=O)O` displayed a Kd of 0.648 µM.

Consider `CC[C@H](C)[C@H](NC(=O)CNC(=O)[C@@H](NC(=O)[C@H](Cc1ccccc1)NC(=O)[C@H](CCCCN)NC(=O)[C@H](CO)NC(=O)[C@H](CC(N)=O)NC(=O)[C@H](C)NC(=O)[C@H](CCCCN)NC(=O)[C@@H](NC(=O)[C@H](Cc1ccc(O)cc1)NC(=O)[C@@H](N)CCC(N)=O)[C@@H](C)CC)[C@@H](C)CC)C(=O)N[C@H](C(=O)N[C@@H](CCC(=O)O)C(=O)O)[C@@H](C)O` [Clostridium tetanus], for which the Kd was > 5 µM.

In the case of `CC[C@H](C)[C@H](N)C(=O)N[C@H](C(=O)N[C@@H](Cc1ccccc1)C(=O)N[C@@H](CCSC)C(=O)N[C@@H](Cc1c[nH]c2ccccc12)C(=O)N[C@@H](C)C(=O)N[C@H](C(=O)N[C@@H](Cc1c[nH]cn1)C(=O)N[C@@H](Cc1c[nH]cn1)C(=O)O)[C@@H](C)CC)C(C)C` [Flu HA1194-202], the dissociation constant (Kd) is > 5 µM.

`CC[C@H](C)[C@H](NC(=O)[C@@H](N)CCCCN)C(=O)N[C@@H](CC(C)C)C(=O)N[C@@H](CCC(=O)O)C(=O)N1CCC[C@H]1C(=O)N[C@@H](Cc1ccccc1)C(=O)N[C@@H](CCCNC(=N)N)C(=O)N[C@@H](CCCCN)C(=O)N[C@@H](Cc1ccc(O)cc1)C(=O)N[C@H](C(=O)N[C@@H](C)C(=O)N[C@@H](Cc1ccccc1)C(=O)N[C@H](C(=O)N[C@H](C(=O)N1CCC[C@H]1C(=O)O)[C@@H](C)CC)[C@@H](C)O)[C@@H](C)O` gave a dissociation constant (Kd) of 1.54 µM.

Take `CC[C@H](C)[C@H](NC(=O)[C@@H](N)Cc1ccc(O)cc1)C(=O)N[C@@H](CC(C)C)C(=O)N[C@@H](Cc1ccccc1)C(=O)N[C@@H](CC(C)C)C(=O)N[C@H](C(=O)N[C@@H](CCCCN)C(=O)N[C@@H](CCSC)C(=O)N[C@@H](CC(N)=O)C(=O)N[C@@H](C)C(=O)N[C@@H](CC(C)C)C(=O)N[C@@H](CCCNC(=N)N)C(=O)N[C@@H](CCCNC(=N)N)C(=O)N[C@@H](CC(C)C)C(=O)N1CCC[C@H]1C(=O)N[C@H](C(=O)O)C(C)C)C(C)C`: the Kd was > 5 µM.

On to `CC[C@H](C)[C@H](NC(=O)[C@H](CCCCN)NC(=O)[C@H](CCCCN)NC(=O)[C@H](CC(C)C)NC(=O)[C@H](CC(C)C)NC(=O)[C@@H](NC(=O)[C@@H](N)Cc1ccc(O)cc1)[C@@H](C)CC)C(=O)N[C@@H](CC(C)C)C(=O)N[C@@H](CO)C(=O)N[C@@H](CO)C(=O)N[C@@H](CCCNC(=N)N)C(=O)N[C@@H](Cc1ccccc1)C(=O)N[C@@H](CC(N)=O)C(=O)N[C@@H](CCC(N)=O)C(=O)N[C@@H](CCSC)C(=O)O` [Plasmodium Falciparum], for which the Kd is > 5 µM.

Turning to `CC[C@H](C)[C@H](NC(=O)[C@H](CCC(=O)O)NC(=O)[C@H](C)NC(=O)[C@H](CCCCN)NC(=O)[C@H](CC(C)C)NC(=O)[C@@H]1CCCN1)C(=O)N[C@@H](C)C(=O)N[C@@H](CCC(N)=O)C(=O)N[C@@H](CCCNC(=N)N)C(=O)N[C@@H](CC(C)C)C(=O)N[C@@H](CCC(=O)O)C(=O)N[C@@H](CC(=O)O)C(=O)N[C@H](C(=O)O)C(C)C` [Influenza], the dissociation constant Kd is > 5 µM.

For `CC[C@H](C)[C@H](N)C(=O)N[C@@H](CCC(N)=O)C(=O)N[C@@H](CCSC)C(=O)N[C@@H](CC(C)C)C(=O)N[C@@H](CCCCN)C(=O)N[C@@H](CC(N)=O)C(=O)NCC(=O)N[C@@H](CCCCN)C(=O)N[C@@H](CCCCN)C(=O)N[C@H](C(=O)N1CCC[C@H]1C(=O)N[C@@H](CCCCN)C(=O)N[C@H](C(=O)N[C@@H](CCC(=O)O)C(=O)N[C@@H](CCSC)C(=O)N[C@@H](CO)C(=O)O)C(C)C)[C@@H](C)CC` [Murine β2m], the Kd is > 5 µM.
